From paper PMC9939731 come the findings set out here.

Test [1] addresses RbBP5–Ash2L–DPY30 subcomplex (human) (UniProt Q15291). In words: AUC; SV-AUC of purified MWRAD2 loaded at 0.25-5 uM, 20 °C, 50,000 rpm, absorbance optics; c(s) in SEDFIT; sw isotherm fit to an A + B = AB heteroassociation model in SEDPHAT; apparent Kd.
The target is the same in test [2]. In words: AUC; SV-AUC of purified MWRAD2 loaded at 0.25-5 uM, 10 °C, 50,000 rpm, absorbance optics; c(s) in SEDFIT; sw isotherm fit to an A + B = AB heteroassociation model in SEDPHAT; apparent Kd.
Test [3] shares this target. In words: AUC; SV-AUC of purified MWRAD2 loaded at 0.25-5 uM, 5 °C, 50,000 rpm, absorbance optics; c(s) in SEDFIT; sw isotherm fit to an A + B = AB heteroassociation model in SEDPHAT; apparent Kd.
For test [4] the target is unchanged. In words: AUC; SV-AUC of purified MWRAD2 loaded at 0.25-5 uM, 15 °C, 50,000 rpm, absorbance optics; c(s) in SEDFIT; sw isotherm fit to an A + B = AB heteroassociation model in SEDPHAT; apparent Kd.
For test [5] the target is unchanged. In words: AUC; SV-AUC of purified MWRAD2 loaded at 0.25-5 uM, 37 °C, 50,000 rpm, absorbance optics; c(s) in SEDFIT; sw isotherm fit to an A + B = AB heteroassociation model in SEDPHAT; apparent Kd.
Test [6] shares this target. In words: AUC; SV-AUC of purified MWRAD2 loaded at 0.25-5 uM, 30 °C, 50,000 rpm, absorbance optics; c(s) in SEDFIT; sw isotherm fit to an A + B = AB heteroassociation model in SEDPHAT; apparent Kd.
For test [7] the target is unchanged. In words: AUC; SV-AUC of purified MWRAD2 loaded at 0.25-5 uM, 25 °C, 50,000 rpm, absorbance optics; c(s) in SEDFIT and Bayesian c(p)(s) analysis with S values of subcomplexes as prior expectations; sw isotherm fit to an A + B = AB heteroassociation model in SEDPHAT; apparent Kd.

Regarding “MLL1–WDR5 heterodimer (from UniProt Q03164 3745-3969; P61964 2-334) (complex)”, the Kd in test [1] worked out at 30 nM; in test [2], 7 nM; in test [3], 7 nM; in test [4] it was 20 nM; in test [5], 6.2 µM; in test [6] it was 290 nM. Moreover, the Kd in test [7] was found to be 62 nM.
